Test results as given in patent US20180125835A1, “Dosage and Use of an A2A Antagonist” (H. Lundbeck A/S, priority 2014, published 2018).

Target: A2A receptor (Homo sapiens, UniProt P29274)
Assay: PET study in humans of A2A receptor occupancy with [11C]-SCH442416
Assay type: in vivo
Details: putamen, Emax model vs CPET

SMILES: Cc1ccc(C(=O)Nc2nc(-c3ccco3)c(C(=O)C3CCOCC3)s2)cn1 [Compound 504]
- estimated Emax of A2A receptor occupancy: 88%
